The values that follow are results of earlier work, collected in US20060147495A1, “Amino acid-based nutritional formulation” (priority 2004, published 2006).

The conditions of this data set: in deionised water at 12° C.

On to calcium glycerophosphate, for which the solubility result is “about 2 g/100 ml”.
